# Experimental data published in PMC2939917 (Bioorganic & medicinal chemistry, 2010).
# By UniProt entry, the sequences of proteins in these tests, tags left out.
# UniProt P19020, whole entry: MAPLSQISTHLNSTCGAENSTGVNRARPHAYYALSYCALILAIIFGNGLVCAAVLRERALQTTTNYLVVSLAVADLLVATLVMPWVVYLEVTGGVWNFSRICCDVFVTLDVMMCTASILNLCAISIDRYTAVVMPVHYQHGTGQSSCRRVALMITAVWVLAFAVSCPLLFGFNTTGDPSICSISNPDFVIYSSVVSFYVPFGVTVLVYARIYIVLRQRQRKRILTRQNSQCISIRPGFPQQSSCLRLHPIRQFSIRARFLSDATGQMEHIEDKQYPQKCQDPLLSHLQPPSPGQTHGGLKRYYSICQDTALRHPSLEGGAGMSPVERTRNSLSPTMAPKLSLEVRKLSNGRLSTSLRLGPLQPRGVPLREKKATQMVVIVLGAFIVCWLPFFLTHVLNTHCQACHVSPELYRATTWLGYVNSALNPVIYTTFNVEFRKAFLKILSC
# Biological target: rat D3 receptors (Rattus norvegicus, UniProt P19020)
# Assay: [3H]spiperone binding inhibition, HEK-293 cells expressing D3 receptors
# Settings: selectivity, Ki D2 / Ki D3, [3H]spiperone binding
smiles,measurement,value
"CCCN(CCC)C1CCc2c(O)cccc2C1 (single isomer, unassigned; (-)) [(−)-5-OH-DPAT]",D2/D3 (ratio of Ki),43.2
